Measurements published in patent US10617705B1, “Isoquercitrin compositions” (priority 2019, dated 2020).

Test: Stability of isoquercitrin (or catechin) in solution with L-arginine and sodium ascorbate at 50° C., by HPLC
Type: physicochemical
Conditions: aqueous solution with L-arginine and sodium ascorbate; for amount of intact compound remaining, of the initial amount in the solution: HPLC
Experimental: An exemplary isoquercitrin/L-arginine mixture was prepared by mixing 0.01 mol isoquercitrin with an aqueous solution containing 0.02 mol L-arginine, heating the mixture to 80° C. until the isoquercitrin dissolved completely, and adding 0.001 mol sodium ascorbate. After cooling, the stability of isoquercitrin was tested by heating the mixture to 50° C. and quantifying by HPLC the amount of intact isoquercitrin remaining after 0 h, 5 h, and 24 h. […] A similar study was performed to assess the stability of a flavonoid related to isoquercitrin, i.e., catechin, after dissolving it with L-arginine and sodium ascorbate. […] It was quite unexpected that only 1.9% of the isoquercitrin degraded after 24 h, as compared to 97.7% of the catechin under identical conditions.

catechin
amount of intact compound remaining, of the initial amount in the solution (5 h at 50° C.): 30.8%
amount of intact compound remaining, of the initial amount in the solution (24 h at 50° C.): 2.3%
compound degraded (after 24 h at 50° C.): 97.7%
